# Measured values reported in PubChem BioAssay AID651800 (The Scripps Research Institute Molecular Screening Center, 2012).
# Only a part is listed here, and it is no random draw. The source made the active and inactive calls. Cut-off read from the data, not from the text of the source: active = inhibition above about 19%; inactive = the rest.
# System: T-cell receptor (TCR)
# Assay: inhibitors of human TCR-CD3 interaction, primary screen, biochemical, fluorescence, TAMRA-labeled TCR probe (AID 651800);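 note: recombinant mutant TCR 2C K166C tagged with TAMRA read by polarization; 0% = receptor in buffer alone and 100% = receptor with positive control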
# Settings: at 9.4 µM, active compounds read high
row,SMILES,inhibition
1,CCC(=O)N(c1ccccc1)C1(COC)CCN(CCn2nnn(CC)c2=O)CC1,inactive: -10.9%
2,CCC(=O)N(c1ccccc1)C1(COC)CCN(CCc2cccs2)CC1,inactive: 4.41%
